ChEMBL document CHEMBL4842359, “1,3-Diarylpyrazolyl-acylsulfonamides as Potent Anti-tuberculosis Agents Targeting Cell Wall Biosynthesis in Mycobacterium tuberculosis” (J Med Chem, 2021)
≈ marks a conversion by molar mass, not a printed value.

System: Mycobacterium tuberculosis
Assay: microbe, parasite or virus in culture
Settings: H37Rv, 336 h

Question: Which MIC does the source give for `CS(=O)(=O)NC(=O)CCc1cn(-c2ccc(Br)cc2)nc1-c1ccncc1` here?
Answer: Its MIC is 1.2 µM (≈ 0.539 µg/mL).
